# Read-outs that look alike come from different tables or passages of the source.
# B1: MGO-modified H-QNDNR-OH (peptide)
# peptide: QNDNR
# modifications: free N-terminus (H); C-terminal acid (OH); MGO-modified (methylglyoxal; site not given)
# B2: MGO-modified Ac-SK-OH (peptide)
# peptide: SK
# modifications: N-terminal acetyl (Ac); C-terminal acid (OH); MGO-modified (methylglyoxal; site not given)
# B3: MGO-modified Ac-KS-OH (peptide)
# peptide: KS
# modifications: N-terminal acetyl (Ac); C-terminal acid (OH); MGO-modified (methylglyoxal; site not given)
# B4: MGO-modified Ac-KH-OH (peptide)
# peptide: KH
# modifications: N-terminal acetyl (Ac); C-terminal acid (OH); MGO-modified (methylglyoxal; site not given)
# B5: MGO-modified Ac-HSSK-OH (peptide)
# peptide: HSSK
# modifications: N-terminal acetyl (Ac); C-terminal acid (OH); MGO-modified (methylglyoxal; site not given)
# B6: MGO-modified Ac-KHNN-OH (peptide)
# peptide: KHNN
# modifications: N-terminal acetyl (Ac); C-terminal acid (OH); MGO-modified (methylglyoxal; site not given)
# B7: MGO-modified Ac-KN-OH (peptide)
# peptide: KN
# modifications: N-terminal acetyl (Ac); C-terminal acid (OH); MGO-modified (methylglyoxal; site not given)
# Experiments:
# Test in all cases: cell-based or functional assay
# [1] = biological target: T1, Cathepsin B from bovine spleen (bovine, UniProt P07688 80-332)
# [2] = biological target: T1, Cathepsin B from bovine spleen; remark: listed apart in the source
# [3] = biological target: T1, Cathepsin B from bovine spleen; remark: listed apart in the source
# [4] = biological target: T1, Cathepsin B from bovine spleen; remark: listed apart in the source
# [5] = biological target: T1, Cathepsin B from bovine spleen; remark: listed apart in the source
# [6] = biological target: T1, Cathepsin B from bovine spleen; remark: listed apart in the source
# [7] = biological target: T1, Cathepsin B from bovine spleen; remark: listed apart in the source
binder,measurement,setting,value
B1,"Cathepsin B inhibition test, 2 mM peptide",[1],116
KI (N-terminal acetyl (Ac); C-terminal acid (OH)) [Ac-KI-OH],"Cathepsin B inhibition test, 2 mM peptide",[2],109
SK (N-terminal acetyl (Ac); C-terminal acid (OH)) [Ac-SK-OH],"Cathepsin B inhibition test, 2 mM peptide",[3],138
QNKH (N-terminal acetyl (Ac); C-terminal acid (OH)) [Ac-QNKH-OH],"Cathepsin B inhibition test, 2 mM peptide",[4],138
MNR (free N-terminus (H); C-terminal acid (OH)) [H-MNR-OH],"Cathepsin B inhibition test, 2 mM peptide",[5],112
B2,"Cathepsin B inhibition test, 2 mM peptide",[3],116
B3,"Cathepsin B inhibition test, 2 mM peptide",[6],111
B4,"Cathepsin B inhibition test, 2 mM peptide",[4],116
B5,"Cathepsin B inhibition test, 2 mM peptide",[3],135
B6,"Cathepsin B inhibition test, 2 mM peptide",[4],112
KS (N-terminal acetyl (Ac); C-terminal acid (OH)) [Ac-KS-OH],"Cathepsin B inhibition test, 2 mM peptide",[6],135
B7,"Cathepsin B inhibition test, 2 mM peptide",[7],112

# Source: patent US20150337019A1 (MANUKAMED HOLDINGS LIMITED PARTNERSHIP, published 2015)
